US20190000850A1, “COMBINATION CANCER THERAPY” (The Regents of the University of California, priority 2015, published 2019)

The chains behind the UniProt entries cited, without tags or fusion partners.
UniProt P27707, whole entry: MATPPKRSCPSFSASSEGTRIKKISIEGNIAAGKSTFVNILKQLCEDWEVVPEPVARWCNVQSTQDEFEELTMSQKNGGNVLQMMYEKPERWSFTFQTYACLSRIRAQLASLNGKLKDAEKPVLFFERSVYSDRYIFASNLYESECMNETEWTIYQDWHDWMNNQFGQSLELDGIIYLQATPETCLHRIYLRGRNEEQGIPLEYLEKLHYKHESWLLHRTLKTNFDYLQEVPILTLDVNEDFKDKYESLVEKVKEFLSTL
UniProt O14757, whole entry: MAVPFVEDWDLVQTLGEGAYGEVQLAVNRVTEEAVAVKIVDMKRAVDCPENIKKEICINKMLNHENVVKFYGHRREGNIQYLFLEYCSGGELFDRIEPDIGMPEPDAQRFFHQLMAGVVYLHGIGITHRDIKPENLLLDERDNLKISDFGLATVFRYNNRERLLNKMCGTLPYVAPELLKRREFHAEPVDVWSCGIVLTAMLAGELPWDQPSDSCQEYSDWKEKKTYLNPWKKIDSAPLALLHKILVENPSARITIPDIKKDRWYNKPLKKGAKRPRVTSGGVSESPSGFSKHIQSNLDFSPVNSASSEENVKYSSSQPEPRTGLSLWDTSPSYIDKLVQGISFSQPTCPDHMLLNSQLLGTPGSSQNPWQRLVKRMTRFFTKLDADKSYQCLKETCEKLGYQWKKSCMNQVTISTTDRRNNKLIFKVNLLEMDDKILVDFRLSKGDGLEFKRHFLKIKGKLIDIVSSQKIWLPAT

What was measured:
[1] = biological target: dCK (Homo sapiens, UniProt P27707); assay: IC50 (cytotoxicity assay) of dCK inhibitors, Table 2; type: cell-based; conditions: read-out: IC50 (cytotoxicity assay)
[2] = biological target: Chk1 (Homo sapiens, UniProt O14757); conditions: read-out: IC50 against primary target (Chk1); cited from earlier work

Row | Structure (SMILES) | IC50 [1] | IC50 [2]
1 | Nc1nc(=O)n([C@H]2CC[C@H](NC(=O)c3cc(-c4cc5ccccc5s4)ccn3)C2)cc1F | 450 nM | –
2 | Oc1ccc(-c2ccc(-c3cc(Nc4cccc(CNC5CC5)c4)n[nH]3)cc2)c(O)c1 | – | 125 to 550 nM
